## Antibody variant affinities, Ab-91 heavy chain, assay 2

Reference: Engelhart et al. 2022, doi:10.1038/s41597-022-01779-4. File: FLAb, binding data.

All variants were tested on one target, the spike HR2 peptide PDVDLGDISGINAS (SARS-CoV-2).

Ab-91 is the parent antibody, in scFv form: VL, then the linker GGGGSGGGGSGGGGS, then VH. The light chain is unchanged in all variants.
VL: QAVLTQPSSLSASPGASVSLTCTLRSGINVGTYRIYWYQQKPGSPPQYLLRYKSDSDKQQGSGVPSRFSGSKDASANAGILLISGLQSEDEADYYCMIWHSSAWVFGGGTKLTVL
VH: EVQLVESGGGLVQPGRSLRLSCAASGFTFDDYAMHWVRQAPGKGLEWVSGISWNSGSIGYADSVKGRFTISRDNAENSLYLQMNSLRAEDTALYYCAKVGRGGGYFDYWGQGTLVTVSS

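Phage display of a naive human antibody library on the peptide gave the parent. In library AAYL51, one, two or three CDR residues were substituted; doubles and triples were drawn at random. AlphaSeq pools MATa yeast showing the antibodies with MATalpha yeast showing the peptide. Mating (16 h, 30 °C) was followed by selection of diploids and sequencing of their barcodes. Read counts were normalised to the haploid input and turned into Kd by a linear fit to BCL2-family pairs of known affinity, for each replicate. There are three technical replicates.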

Positions count from residue 1 of the parent VH; G50M puts M in place of G. Numbers give log10(Kd / nM), so 0 is 1 nM and 3 is 1 µM. Smaller is tighter. Replicates are averaged; those with no signal do not enter the mean. Where no diploid with the target was found in that replicate, the entry reads "ND": below detection, most likely a poor binder, though not proof of it. In this assay the parent's reference entry averaged 1.86; its copy inside this library read 0.88.

changes | replicates, log10 nM | log10 Kd (nM), mean | empty controls
G50M/G56H/R101T | ND ND ND | ND | 0/9
H35W | 5.45 ND 4.79 | 5.12 | 1/9 (4.05)
A61T/K65Y/G103Q | ND ND ND | ND | 1/9 (3.89)
T28Y/G50S/I58M | ND ND ND | ND | 1/9 (4.89)
F29N/S52M/G104L | ND 4.81 ND | 4.81 | 6/9 (5.50)
K65G/G103A | 2.26 2.37 2.36 | 2.33 | 2/9 (3.45)
M34S/S57P/S63A | 4.55 ND 5.42 | 4.99 | 3/9 (5.23)
M34F/Y60F/A61S | 3.83 4.34 ND | 4.08 | 0/9
A33W/Y105V/D107F | ND ND ND | ND | 2/9 (2.64)
Y32F/K65E/G100E | 0.74 0.67 -0.01 | 0.46 | 7/9 (5.44)
Y32E/G50I/G102F | ND ND ND | ND | 0/9
F27K/D31M/R101F | ND 5.07 ND | 5.07 | 0/9
S52Y/I58V/Y60F | ND ND ND | ND | 0/9
D31T/V99L/F106I | 1.38 1.32 0.99 | 1.23 | 0/9
T28I/D30L/I51K | ND ND ND | ND | 4/9 (4.61)
V64Y | ND ND 4.91 | 4.91 | 1/9 (4.01)
G26C/F27E/A33K | ND ND ND | ND | 1/9 (2.87)
G26W/Y32W/A33H | 4.50 ND ND | 4.50 | 1/9 (4.43)
F29I/V99Y/Y105M | 1.17 1.41 0.97 | 1.18 | 5/9 (4.62)
T28R/I58V/D62H | 2.22 2.32 2.04 | 2.19 | 8/9 (4.97)
Y60W/S63Q | ND 5.80 ND | 5.80 | 0/9
G26Q/S55I/G104C | 4.53 5.42 ND | 4.98 | 4/9 (3.93)
I51W/W53G/S57K | ND ND 4.19 | 4.19 | 3/9 (4.03)
G59E/G100R | ND ND ND | ND | 0/9
G26R/N54S/Y108Q | 4.31 ND ND | 4.31 | 0/9
G56W/V99S/G102C | ND ND ND | ND | 1/9 (4.35)
G26V/H35E/G59T | ND 4.95 ND | 4.95 | 3/9 (4.26)
D31I/S52G/V64T | ND ND ND | ND | 1/9 (4.16)
T28V/S57F/Y105K | 4.95 4.93 ND | 4.94 | 4/9 (5.38)
F29C/I51T/G104T | ND ND ND | ND | 0/9
D62G/V64P/G102T | ND 5.66 ND | 5.66 | 0/9
Y32D/G59S/G104T | ND ND ND | ND | 1/9 (4.79)
F29C/Y32E/S63Y | ND ND ND | ND | 0/9
G50W/A61R/V99M | ND 4.39 ND | 4.39 | 4/9 (3.67)
T28R/A61C/F106D | ND ND ND | ND | 0/9
D31F/H35W/Y108H | ND ND ND | ND | 0/9
D31T/A33M/S63L | ND ND ND | ND | 0/9
F29N/A33E/I58Q | ND ND ND | ND | 1/9 (3.21)
M34I/I51S/R101L | 4.65 4.43 ND | 4.54 | 4/9 (4.80)
M34E/G102F/G103M | ND ND ND | ND | 0/9
V99Q/G104D | ND ND 4.17 | 4.17 | 4/9 (4.90)

The closing 5 entries, repeated:

changes,"replicates, log10 nM","log10 Kd (nM), mean",empty controls
D31T/A33M/S63L,ND ND ND,ND,0/9
F29N/A33E/I58Q,ND ND ND,ND,1/9 (3.21)
M34I/I51S/R101L,4.65 4.43 ND,4.54,4/9 (4.80)
M34E/G102F/G103M,ND ND ND,ND,0/9
V99Q/G104D,ND ND 4.17,4.17,4/9 (4.90)

Background: pairings of library AAYL51 with three empty control strains gave a value in 21% of cases (median 4.54, 5th percentile 3.26). Values in that range, when seen in few replicates, are hard to tell from nonspecific mating. Also given: how often the same scFv was detected with the empty control strains, with their mean in brackets.